Where two headings read alike, the source gives them in different places.
Molecular target: F508delCFTR (Homo sapiens, UniProt P13569, DEL508-508)
Test: Cell Surface Expression-Horse Radish Peroxidase (CSE-HRP) Assay;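 for Maximum % activity (with co-corrector): co-corrector and positive control are both the same reference corrector at 2 µM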
Type: cell-based
Conditions: for Maximum % activity (with co-corrector): maximum at any tested concentration, normalized to on-plate positive control
[1] = read-out: EC50 (with co-corrector), with co-corrector (2 μM of 3-[(2R,4R)-4-({[1-(2,2-difluoro-1,3-benzodioxol-5-yl)cyclopropyl]carbonyl}amino)-7-methoxy-3,4-dihydro-2H-chromen-2-yl]benzoic acid)
[2] = read-out: EC50 (without co-corrector), test compound without co-corrector
[3] = with co-corrector (2 μM of 3-[(2R,4R)-4-({[1-(2,2-difluoro-1,3-benzodioxol-5-yl)cyclopropyl]carbonyl}amino)-7-methoxy-3,4-dihydro-2H-chromen-2-yl]benzoic acid)
[4] = CSE-HRP, with co-corrector (2 μM)
[5] = read-out: EC50 (with co-corrector), CSE-HRP, with co-corrector (2 μM of 3-[(2R,4R)-4-({[1-(2,2-difluoro-1,3-benzodioxol-5-yl)cyclopropyl]carbonyl}amino)-7-methoxy-3,4-dihydro-2H-chromen-2-yl]benzoic acid)
[6] = read-out: EC50 (without co-corrector), CSE-HRP, test compound without co-corrector

By UniProt entry, the sequences of proteins in these tests, tags left out. Chains listed by the source or under a name are the forms on record and can include a tag or linker.
UniProt P13569, with tags, fused parts or gaps DEL508-508: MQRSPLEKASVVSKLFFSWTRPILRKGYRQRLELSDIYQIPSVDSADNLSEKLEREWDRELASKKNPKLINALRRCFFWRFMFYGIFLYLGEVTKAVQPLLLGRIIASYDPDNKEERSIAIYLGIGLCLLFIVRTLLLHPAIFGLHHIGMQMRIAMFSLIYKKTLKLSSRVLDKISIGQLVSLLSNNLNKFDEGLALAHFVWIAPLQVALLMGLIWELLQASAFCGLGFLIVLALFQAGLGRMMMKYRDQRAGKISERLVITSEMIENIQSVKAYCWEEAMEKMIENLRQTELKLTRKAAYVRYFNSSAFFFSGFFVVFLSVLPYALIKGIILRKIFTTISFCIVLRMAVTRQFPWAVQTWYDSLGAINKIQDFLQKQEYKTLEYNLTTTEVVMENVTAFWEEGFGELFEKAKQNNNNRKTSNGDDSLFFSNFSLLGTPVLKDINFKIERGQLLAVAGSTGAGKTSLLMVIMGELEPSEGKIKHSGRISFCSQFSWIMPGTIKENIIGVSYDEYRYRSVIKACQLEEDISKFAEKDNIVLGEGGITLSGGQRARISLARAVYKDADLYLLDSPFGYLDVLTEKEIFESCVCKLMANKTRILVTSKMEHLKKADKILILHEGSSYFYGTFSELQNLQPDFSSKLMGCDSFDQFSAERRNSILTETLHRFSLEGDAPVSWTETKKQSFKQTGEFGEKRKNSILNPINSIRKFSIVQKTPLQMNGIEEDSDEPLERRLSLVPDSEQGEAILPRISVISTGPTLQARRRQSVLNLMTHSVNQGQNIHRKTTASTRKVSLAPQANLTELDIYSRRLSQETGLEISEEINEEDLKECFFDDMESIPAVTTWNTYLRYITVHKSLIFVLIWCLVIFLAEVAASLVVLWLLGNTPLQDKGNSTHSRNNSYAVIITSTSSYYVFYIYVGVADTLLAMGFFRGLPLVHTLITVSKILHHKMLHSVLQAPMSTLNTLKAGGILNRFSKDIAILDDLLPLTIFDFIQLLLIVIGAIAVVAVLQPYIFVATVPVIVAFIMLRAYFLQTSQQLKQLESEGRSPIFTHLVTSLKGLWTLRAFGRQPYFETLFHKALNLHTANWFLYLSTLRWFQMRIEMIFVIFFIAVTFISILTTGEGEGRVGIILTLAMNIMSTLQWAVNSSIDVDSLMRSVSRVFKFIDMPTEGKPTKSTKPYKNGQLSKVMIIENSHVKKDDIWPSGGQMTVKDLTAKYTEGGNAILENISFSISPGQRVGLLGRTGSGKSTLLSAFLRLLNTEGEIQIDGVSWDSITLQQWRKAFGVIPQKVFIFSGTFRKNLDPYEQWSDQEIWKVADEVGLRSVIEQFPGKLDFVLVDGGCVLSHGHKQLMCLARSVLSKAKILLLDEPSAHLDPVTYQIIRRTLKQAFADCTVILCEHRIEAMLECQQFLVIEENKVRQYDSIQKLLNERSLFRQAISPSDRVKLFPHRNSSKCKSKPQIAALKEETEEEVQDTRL

With `COc1ccc(C(C)(C)C)cc1CN[C@H]1[C@H](C(C)(C)C)[C@@H](C(=O)O)N(C(=O)[C@@H]2C[C@H](C)C[C@H](C)C2)[C@H]1c1ccccc1` the EC50 [1] was < 1000 nM, the EC50 [2] was < 1000 nM and the “Maximum % activity (with co-corrector)” value [3] was “+++ (≥350)”.

`COc1ncc(C(F)(F)F)cc1CN[C@H]1[C@H](C(C)(C)C)[C@@H](C(=O)O)N(C(=O)[C@@H]2CCCO2)[C@H]1c1ccccc1Cl` was tested, and the “Maximum % activity (with co-corrector)” value [4] was “+++ (≥350)”, the EC50 [5] was 1000 to 10000 nM and the EC50 [6] was 1000 to 10000 nM.

With `CC(C)(C)[C@@H]1[C@@H](Nc2ccc(Cl)cn2)[C@@H](c2ccccc2)N(C(=O)C2CCCCC2)[C@H]1C(=O)O` (relative stereo) the “Maximum % activity (with co-corrector)” value [4] was “++ (≥150 and <350)”, the EC50 [5] was 1000 to 10000 nM and the EC50 [6] was 1000 to 10000 nM.

With `CC(C)(C)[C@H]1[C@H](NC2Cc3cccc(Cl)c3C2)[C@H](c2ccccc2)N(C(=O)C2CCCCC2)[C@@H]1C(=O)O` (stereo partly drawn) the EC50 [1] was < 1000 nM, the EC50 [2] was 1000 to 10000 nM and the “Maximum % activity (with co-corrector)” value (with co-corrector (2 μM)) was “+++ (≥350)”.

With `CC(C)(C)[C@@H]1[C@@H](NCc2ccccc2Cl)[C@@H](c2ccccc2)N(C(=O)CC2CCCC2)[C@H]1C(=O)O` (relative stereo) the EC50 [1] was 1000 to 10000 nM, the EC50 [2] was 1000 to 10000 nM and the “Maximum % activity (with co-corrector)” value [3] was “+++ (≥350)”.

In the case of `COc1ccc(C(C)(C)C)cc1CN[C@H]1[C@H](C(C)(C)C)[C@@H](C(=O)O)N(C(=O)C2CCc3ccc(Cl)cc32)[C@H]1c1ccccc1` (stereo partly drawn), the EC50 [1] is reported as < 1000 nM, the EC50 [2] is reported as < 1000 nM and the “Maximum % activity (with co-corrector)” value [3] is reported as “+++ (≥350)”.

With `COc1ccc(C(C)(C)C)cc1CN[C@H]1[C@H](C(C)(C)C)[C@@H](C(=O)O)N(C(=O)C2CCC(O)(C(F)(F)F)CC2)[C@H]1c1ccccc1` (stereo partly drawn) the EC50 [1] was 1000 to 10000 nM, the EC50 [2] was 1000 to 10000 nM and the “Maximum % activity (with co-corrector)” value [3] was “+++ (≥350)”.

For `CC(C)(C)[C@H]1[C@H](NC2Cc3ccc(Cl)cc3C2)[C@H](c2ccccc2)N(C(=O)C2CCCCC2)[C@@H]1C(=O)O` (stereo partly drawn), the EC50 [1] was 1000 to 10000 nM, the EC50 [2] was < 1000 nM and the “Maximum % activity (with co-corrector)” value (with co-corrector (2 μM)) was “+++ (≥350)”.

In the case of `COc1ccc(Cl)cc1CN[C@H]1[C@H](C(C)(C)C)[C@@H](C(=O)O)N(C(=O)C2CCCCC2)[C@H]1c1cccnc1OC` (relative stereo), the “Maximum % activity (with co-corrector)” value [4] is reported as “+++ (≥350)”, the EC50 [5] is reported as 1000 to 10000 nM and the EC50 [6] is reported as 1000 to 10000 nM.

In the case of `C=CCC1(O)CCC(C(=O)N2[C@H](C(=O)O)[C@@H](C(C)(C)C)[C@H](NCc3cc(C(C)(C)C)ccc3OC)[C@@H]2c2ccccc2)CC1` (stereo partly drawn), the EC50 [1] is reported as 1000 to 10000 nM, the EC50 [2] is reported as 1000 to 10000 nM and the “Maximum % activity (with co-corrector)” value (with co-corrector (2 μM)) is reported as “+++ (≥350)”.

With `COc1ccc(C(C)(C)C)cc1CN[C@H]1[C@H](C(C)(C)C)[C@@H](C(=O)O)N(C(=O)[C@H]2CC[C@](O)(C(F)(F)F)CC2)[C@H]1c1ccccc1` the EC50 [1] was 1000 to 10000 nM, the EC50 [2] was 1000 to 10000 nM and the “Maximum % activity (with co-corrector)” value [3] was “+++ (≥350)”.

With `COc1ccc(C(F)(F)F)cc1CN[C@H]1[C@H](C(C)(C)C)[C@@H](C(=O)O)N(C(=O)C2CCCCC2)[C@H]1c1cccnc1OC` (relative stereo) the “Maximum % activity (with co-corrector)” value [4] was “+++ (≥350)”, the EC50 [5] was 1000 to 10000 nM and the EC50 [6] was 1000 to 10000 nM.

With `COc1ccc(C(C)(C)C)cc1CN[C@H]1[C@H](C(C)(C)C)[C@@H](C(=O)O)N(C(=O)[C@H]2CC[C@@](O)(C(C)C)CC2)[C@H]1c1ccccc1` the EC50 [1] was 1000 to 10000 nM, the EC50 [2] was 1000 to 10000 nM and the “Maximum % activity (with co-corrector)” value [3] was “+++ (≥350)”.

With `COc1ccc(C23CC4CC(CC(C4)C2)C3)cc1CN[C@H]1[C@H](C(C)(C)C)[C@@H](C(=O)O)N(C(=O)C2CCCCC2)[C@H]1c1ccc(F)cc1` the “Maximum % activity (with co-corrector)” value [4] was “+++ (≥350)”, the EC50 [5] was < 1000 nM and the EC50 [6] was 1000 to 10000 nM.

`COc1ccc(C23CC4CC(CC(C4)C2)C3)cc1CN[C@H]1[C@H](C(C)(C)C)[C@@H](C(=O)O)N(C(=O)OC(C)C)[C@H]1c1cccnc1N(C)C` was tested, and the EC50 [1] was < 1000 nM, the EC50 [2] was 1000 to 10000 nM and the “Maximum % activity (with co-corrector)” value (with co-corrector (2 μM)) was “+++ (≥350)”.

With `COc1ccc(C23CC4CC(CC(C4)C2)C3)cc1CN[C@H]1[C@H](C(C)(C)C)[C@@H](C(=O)O)N(C(=O)C2CCCCC2)[C@H]1c1ccccc1F` the EC50 [1] was < 1000 nM, the EC50 [2] was < 1000 nM and the “Maximum % activity (with co-corrector)” value (with co-corrector (2 μM)) was “+++ (≥350)”.

With `COc1ccc(C23CC4CC(CC(C4)C2)C3)cc1CN[C@H]1[C@H](C(C)(C)C)[C@@H](C(=O)O)N(C(=O)OC(C)C)[C@H]1c1ccccc1` the EC50 [1] was < 1000 nM, the EC50 [2] was < 1000 nM and the “Maximum % activity (with co-corrector)” value [3] was “+++ (≥350)”.

With `CCCC1(O)CCC(C(=O)N2[C@H](C(=O)O)[C@@H](C(C)(C)C)[C@H](Nc3cc(C(F)(F)F)cnc3OC)[C@@H]2c2cccnc2N(C)C)CC1` (stereo partly drawn) the EC50 [1] was > 10000 nM, the EC50 [2] was > 10000 nM and the “Maximum % activity (with co-corrector)” value (with co-corrector (2 μM)) was “+ (<150)”.

For `CC[C@]1(O)CC[C@H](C(=O)N2[C@H](C(=O)O)[C@@H](C(C)(C)C)[C@H](NCc3cc(C(C)(C)C)ccc3OC)[C@@H]2c2ccccc2)CC1`, the EC50 [1] was 1000 to 10000 nM, the EC50 [2] was 1000 to 10000 nM and the “Maximum % activity (with co-corrector)” value [3] was “+++ (≥350)”.

For `COc1cc(Cl)ccc1CN[C@H]1[C@H](C(C)(C)C)[C@@H](C(=O)O)N(C(=O)C2CCCCC2)[C@H]1c1cccnc1OC` (relative stereo), the “Maximum % activity (with co-corrector)” value [4] was “+++ (≥350)”, the EC50 [5] was 1000 to 10000 nM and the EC50 [6] was 1000 to 10000 nM.

With `CCC[C@]1(O)CC[C@H](C(=O)N2[C@H](C(=O)O)[C@@H](C(C)(C)C)[C@H](NCc3cc(C(C)(C)C)ccc3OC)[C@@H]2c2ccccc2)CC1` the EC50 [1] was 1000 to 10000 nM, the EC50 [2] was 1000 to 10000 nM and the “Maximum % activity (with co-corrector)” value [3] was “+++ (≥350)”.

With `COc1ccc(C23CC4CC(CC(C4)C2)C3)cc1CN[C@H]1[C@H](C(C)(C)C)[C@@H](C(=O)O)N(C(=O)C2CCCCC2)[C@H]1c1ccccc1` the EC50 [1] was < 1000 nM, the EC50 [2] was < 1000 nM and the “Maximum % activity (with co-corrector)” value (with co-corrector (2 μM)) was “+++ (≥350)”.

With `CC(C)(C)[C@H]1[C@H](NC2CCc3cc(Cl)ccc32)[C@H](c2ccccc2)N(C(=O)C2CCCCC2)[C@@H]1C(=O)O` (stereo partly drawn) the EC50 [1] was 1000 to 10000 nM, the EC50 [2] was 1000 to 10000 nM and the “Maximum % activity (with co-corrector)” value (with co-corrector (2 μM)) was “+++ (≥350)”.

With `COc1cc(C(F)(F)F)ccc1CN[C@H]1[C@H](C(C)(C)C)[C@@H](C(=O)O)N(C(=O)C2CCOC(C)(C)C2)[C@H]1c1ccccc1N(C)C` (relative stereo) the EC50 [1] was 1000 to 10000 nM, the EC50 [2] was 1000 to 10000 nM and the “Maximum % activity (with co-corrector)” value (with co-corrector (2 μM)) was “+++ (≥350)”.

`COc1ccc(C2CCC2)cc1CN[C@H]1[C@H](C(C)(C)C)[C@@H](C(=O)O)N(C(=O)OC(C)C)[C@H]1c1cccnc1N(C)C` was tested, and the EC50 [1] was < 1000 nM, the EC50 [2] was 1000 to 10000 nM and the “Maximum % activity (with co-corrector)” value [3] was “+++ (≥350)”.

In the case of `COc1ccc(C(C)(C)C)cc1CN[C@H]1[C@H](C(C)(C)C)[C@@H](C(=O)O)N(C(=O)C2CCC(O)(C(C)C)CC2)[C@H]1c1ccccc1` (stereo partly drawn), the EC50 [1] is reported as < 1000 nM, the EC50 [2] is reported as 1000 to 10000 nM and the “Maximum % activity (with co-corrector)” value (with co-corrector (2 μM)) is reported as “+++ (≥350)”.

`COc1ccc(C(C)(C)C)cc1CN[C@H]1[C@H](C(C)(C)C)[C@@H](C(=O)O)N(C(=O)[C@H]2CCCCO2)[C@H]1c1ccccc1C(C)C` (single isomer, unassigned) was tested, and the EC50 [1] was < 1000 nM, the EC50 [2] was < 1000 nM and the “Maximum % activity (with co-corrector)” value (with co-corrector (2 μM)) was “+++ (≥350)”.

For `C=CC[C@]1(O)CC[C@H](C(=O)N2[C@H](C(=O)O)[C@@H](C(C)(C)C)[C@H](NCc3cc(C(C)(C)C)ccc3OC)[C@@H]2c2ccccc2)CC1`, the EC50 [1] was 1000 to 10000 nM, the EC50 [2] was 1000 to 10000 nM and the “Maximum % activity (with co-corrector)” value [3] was “+++ (≥350)”.

For `CCC1(O)CCC(C(=O)N2[C@H](C(=O)O)[C@@H](C(C)(C)C)[C@H](NCc3cc(C(C)(C)C)ccc3OC)[C@@H]2c2ccccc2)CC1` (stereo partly drawn), the EC50 [1] was 1000 to 10000 nM, the EC50 [2] was 1000 to 10000 nM and the “Maximum % activity (with co-corrector)” value (with co-corrector (2 μM)) was “+++ (≥350)”.

Reference: patent publication US20180099931A1 (AbbVie S.à.r.l., priority 2016, published 2018)
